The conditions of this series: rat, in vivo.

Molecule `O=C1CCc2cc(OCCCCc3nnnn3C3CCCCC3)ccc2N1` [cilostazol] came in with a mean heart rate of 228.0±0.4 bpm.
